This is an account of results in PubChem BioAssay AID652115 (Broad Institute, 2013).

The chains behind the UniProt entries cited, without tags or fusion partners. Where a name states a change or a piece, a line headed by the entry shows the natural chain unless it says otherwise.
UniProt Q9NXA8: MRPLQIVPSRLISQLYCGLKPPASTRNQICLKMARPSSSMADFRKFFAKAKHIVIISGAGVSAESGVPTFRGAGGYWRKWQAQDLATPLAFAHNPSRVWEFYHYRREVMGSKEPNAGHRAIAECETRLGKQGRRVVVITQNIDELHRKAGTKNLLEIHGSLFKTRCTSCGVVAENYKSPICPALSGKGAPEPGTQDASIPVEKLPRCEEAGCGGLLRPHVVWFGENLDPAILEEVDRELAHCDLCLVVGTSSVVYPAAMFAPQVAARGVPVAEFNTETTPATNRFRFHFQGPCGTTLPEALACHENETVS

The list shows a part of the results, in another mix than the full data. The source made the active and inactive calls. Rule as the data show it: active = inhibition above about 15%; inconclusive = no clear call, values can overlap the other calls; inactive = below that.

In the test the target is NAD-dependent protein deacylase sirtuin-5, mitochondrial (Homo sapiens) (UniProt Q9NXA8). In words: SIRT5 desuccinylase inhibitors, primary screen, biochemical, fluorescence imaging, single point, set 5 (AID 652115). As to conditions: Purified SirT5, succinyl-peptide AMC, trypsin-coupled fluorescence; at 15 µM; stronger effect = higher value.
Turning to `O=[N+]([O-])c1cc([N+](=O)[O-])c(CCNc2ccccc2)c([N+](=O)[O-])c1`, the inhibition was inactive: -5.14%.

Take `Cc1ccc(NP(=O)(Oc2ccccc2)Oc2ccccc2)nc1`: the inhibition is inactive: 0.063%.

Take `COc1ccc(C2=NCC(CBr)S2)cc1` (stereo not drawn): the inhibition is inactive: 3.42%.

For the compound `CC(C)=N/N=C(\N)N[N+](=O)[O-]`, the inhibition was inactive: -0.753%.

Regarding `CC(C)c1nc(Nc2ccccc2)n(P(=O)(N(C)C)N(C)C)n1`, the inhibition was inactive: -0.401%.

With `c1cc(-c2nn[nH]n2)ccc1-c1nn[nH]n1`, the inhibition is inactive: -8.03%.

For the compound `Nc1ccc([As](=O)(O)c2ccc(N)cc2)cc1`, the inhibition was inactive: -3.12%.

Regarding `CCN(/C(=N/P(=O)(N1CCOCC1)N1CCOCC1)N1CCOCC1)c1ccc(OC)cc1`, the inhibition is inactive: 0.427%.

For `O=C(Nc1cc([As](=O)(O)O)ccc1O)c1ccccc1`, the inhibition is inactive: 0.778%.

As to `O=P1(N(CCCl)CCCl)OCCCS1` (stereo not drawn), the inhibition was inactive: -0.085%.

Turning to `O=[N+]([O-])c1cccc(NC2=NCC(CBr)S2)c1` (stereo not drawn), the inhibition was inactive: 0.57%.

In the case of `COC(=O)C1(C)COP(=O)(Nc2ccccc2)OC1` (stereo not drawn), the inhibition was inactive: -2.42%.

As for `O=C(O)CNc1ccc([As](=O)(O)O)cc1`, the inhibition was inactive: -3.64%.

For `CC(C)(C)C(=O)NC(Sc1ccncn1)C(Cl)(Cl)Cl` (stereo not drawn), the inhibition was inactive: -0.7%.

Regarding `O=[N+]([O-])c1ncn(CCn2ncnc2[N+](=O)[O-])n1`, the inhibition was inactive: -1.19%.

For `Cc1ccc(NP(=O)(Oc2ccccc2F)Oc2ccccc2F)nc1`, the inhibition is inactive: -1.86%.

`CN(C(=O)Cc1ccc(Cl)c(Cl)c1)[C@H]1CCCC[C@@H]1N1CCCC1`: the inhibition is inactive: -6.64%.

As for `O=C(O)c1ccccc1[As](=O)(O)O`, the inhibition is inactive: -2.91%.

Consider `CC(=O)Nc1ccc([As](=O)(O)O)cc1`, for which the inhibition was inactive: -5.27%.

Take `CN(C)P(=O)(N(C)C)n1c(Nc2ccccc2)nnc1-c1ccccc1`: the inhibition is inactive: -2.9%.

As for `O=P(Nc1nc2ccc(Cl)cc2s1)(c1ccccc1)c1ccccc1`, the inhibition is inactive: 1.7%.

`Nc1cccc2ccc([As](=O)(O)O)cc12`: the inhibition was inactive: -0.612%.

In the case of `Cc1ccc(OP(=O)(Nc2nccs2)Oc2ccc(C)cc2)cc1`, the inhibition is inactive: -1.69%.

On to `COc1ccccc1OP(=O)(Nc1ccc(C)cn1)Oc1ccccc1OC`, for which the inhibition was active: 16.3%.

For the compound `Clc1ccc(Cl)c(NC2=NCC(CBr)S2)c1` (stereo not drawn), the inhibition was inactive: -3.47%.

`NC(=O)c1cc([N+](=O)[O-])cc([N+](=O)[O-])c1N`: the inhibition was inactive: 6.07%.

Consider `Cc1ccc(N/C(=N/P(=O)(N2CCOCC2)N2CCOCC2)N2CCOCC2)cc1`, for which the inhibition was inactive: -3.06%.

On to `CN(C(=O)Cc1ccc(Cl)c(Cl)c1)[C@H]1CCCC[C@H]1N1CCCC1`, for which the inhibition is inactive: -5.52%.
